# Measured values from patent US5840697A, “Peptide inhibitors of calmodulin” (Torrey Pines Institute for Molecular Studies, priority 1996, dated 1998).
# Biological target: calmodulin (Homo sapiens, UniProt P0DP23)
# Assay: electrophoretic band shift assay of peptide-calmodulin complexes
# Assay type: binding
# Description: The following samples were subjected to electrophoresis in the gel lane indicated:
# Because melittin is known to bind to calmodulin as described, for example, in Comte et al., Biochem. J., 209:269-272 (1983), in the above samples melittin is the positive control. The samples were incubated with calmodulin at 22° C. for 1 hr, and electrophoresed on a 10% acrylamide gel in Tris-glycine buffer under nondenaturating conditions as described in Head and Perry, Biochem. J., 137:145-154 (1974), which is incorporated herein by reference. The gel was then stained with coomasie blue.
# The band shifts were also measured using a densitometer. Determination of band width by densitometry was done on the following samples: (1) calmodulin (1 nmol)+EDTA (2 nmol); (2) calmodulin (1 nmol)+Ca^2+ (1 nmol)+Ac-(D)Leu-(D)Trp-(D)Arg-(D)Ile-(D)Leu-(D)Trp-NH2 (100 nmol); and (3) calmodulin (1 nmol)+Ca^2+ (1 nmol).
compound,measurement,setting,value
"CC[C@H](C)[C@H](NC(=O)CN)C(=O)NCC(=O)N[C@@H](C)C(=O)N[C@H](C(=O)N[C@@H](CC(C)C)C(=O)N[C@@H](CCCCN)C(=O)N[C@H](C(=O)N[C@@H](CC(C)C)C(=O)N[C@H](C(=O)N[C@H](C(=O)NCC(=O)N[C@@H](CC(C)C)C(=O)N1CCC[C@H]1C(=O)N[C@@H](C)C(=O)N[C@@H](CC(C)C)C(=O)N[C@H](C(=O)N[C@@H](CO)C(=O)N[C@@H](Cc1c[nH]c2ccccc12)C(=O)N[C@H](C(=O)N[C@@H](CCCCN)C(=O)N[C@@H](CCCNC(=N)N)C(=O)N[C@@H](CCCCN)C(=O)N[C@@H](CCCNC(=N)N)C(=O)N[C@@H](CCC(N)=O)C(=O)N[C@@H](CCC(N)=O)C(N)=O)[C@@H](C)CC)[C@@H](C)CC)[C@@H](C)O)[C@@H](C)O)C(C)C)C(C)C [melittin, reference compound]",band shift (mobility change) on binding to calmodulin,in the presence of Ca2+,shifted as compared to lane 8
same,band shift (mobility change) on binding to calmodulin,with EDTA (no calcium),no band shift
